From patent US20240254186A1, “GLP-1 Receptor Agonists Having Improved Pharmacological and Drug Delivery Properties” (priority 2021, published 2024) come the findings set out here.

The chains behind the UniProt entries cited, without tags or fusion partners. Residues count along the entry.
UniProt P43220, 24-463: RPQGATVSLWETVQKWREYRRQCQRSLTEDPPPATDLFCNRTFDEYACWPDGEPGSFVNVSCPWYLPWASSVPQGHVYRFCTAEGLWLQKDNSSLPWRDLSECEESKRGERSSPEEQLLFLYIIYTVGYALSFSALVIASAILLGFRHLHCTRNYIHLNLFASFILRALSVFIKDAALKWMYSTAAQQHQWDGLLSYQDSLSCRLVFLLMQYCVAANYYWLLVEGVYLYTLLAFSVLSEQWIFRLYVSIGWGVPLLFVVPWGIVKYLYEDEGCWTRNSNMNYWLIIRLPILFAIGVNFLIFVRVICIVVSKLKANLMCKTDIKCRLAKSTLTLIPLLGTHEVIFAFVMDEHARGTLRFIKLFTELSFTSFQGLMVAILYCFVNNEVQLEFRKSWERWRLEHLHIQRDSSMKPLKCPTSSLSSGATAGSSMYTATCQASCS

The assay concerns the target T1, hGLP1 receptor (Homo sapiens, UniProt P43220).
T1 construct: expressed in transfected cells; host or cells: HEK (human embryonic kidney) cells co-expressing hGLP1 receptor and a CRE-Luciferase construct
Kind of assay: cAMP HTRF agonist assay in HEK cells co-expressing the hGLP1 receptor and CRE-Luciferase construct. In kind it is cell-based. The settings on record: Table 6; cell annotated (0% albumin). On the technique in general: TR-FRET usually uses a lanthanide donor and a delayed reading to cut background.

`C[C@@H](O)[C@H](NC(=O)CNC(=O)[C@H](CCC(=O)O)NC(=O)[C@]1(C)CCCN1C(=O)[C@@H](N)Cc1c[nH]cn1)C(=O)N[C@@](C)(Cc1ccccc1F)C(=O)N[C@H](C(=O)N[C@@H](CO)C(=O)N[C@@H](CC(=O)O)C(=O)N[C@](C)(Cc1ccc(-c2ccccc2)cc1)C(=O)N[C@@H](Cc1ccc(-c2ccccc2)cc1)C(N)=O)[C@@H](C)O` [4-72-i2, H2N-His-α-MePro-Glu-Gly-Thr-α-MePhe(2F)-Thr-Ser-Asp-α-MeBip-Bip-C(O)NH2] gave an EC50 of over 1 nM.

A word on the EC50: it is the concentration that produces a half-maximal response.
